Columns and labels:
[1] = test system: 293 cells devoid of FcRn expression; test: Control binding of Alexa Fluor 647 conjugated HSA to 293 cells devoid of FcRn expression; assay type: cell-based, human
Method: Dilutions of each fluorescent protein ranging from 0.316 to 3160 nM (in triplicates) were incubated with confluent 293 human embryonic kidney cells expressing human FcRn (Petkova et al., Int Immunol. 2006; 18:1759-1769) at pH 6.5 in a round bottom 96-well plate. […] Following a washing step with 1×PBS (pH 6.5), the cells were imaged by the Maestro™ In-Vivo Fluorescence Imaging System (CRi, Woburn, Mass.) using Deep Red (671-705 nm) excitation and Red (700 nm longpass) emission filters. Same size regions of interest (ROI) were drawn in each well and the fluorescent signal was measured and averaged for each dilution. A binding curve was generated with mean fluorescence as a function of Alexa-Fluor 647 conjugated DIII protein concentration. The DIII concentration at which 50% fluorescence was measured signified the DIII protein relative binding affinity for FcRn (see, FIG. 6).

[2] = design: species or system Balb/c mice; settings: mouse, in vivo
Method: Their pharmacokinetic profile in blood was evaluated in vivo by injecting each ^131I-labeled DIII protein intravenously in Balb/c mice. Blood was drawn from the tail at eight different time points (0-72 h) and the radioactivity was counted in a gamma well counter. […] Selected DIII proteins will be used as scaffolds for grafting or chemically conjugating tumor targeting molecules (peptides, aptamers or small chemical moieties), as well as for directly for generation of combinatorial display libraries. Target specific scaffolds with suitable pharmacokinetics for diagnostic purposes may be used in imaging applications. Alternatively, potential anti-tumor drugs could be conjugated to the targeted scaffolds with optimal characteristics for therapy and utilized in cancer treatment.
This spectrum of circulation residence times allows for one to choose the DIII platform that can fit best the desired application (e.g. therapy, imaging).

For “HSA: Human serum albumin, entire protein; 67 kDa [reference compound]”, the “Binding to 293 cells (devoid of FcRn)” value [1] was “did not bind”, the “AUC (time integral of the blood uptake)” value [2] was 746 % ID/g × h and the “Aα (amplitude)” value [2] was 26.88 % ID/g. The “Aβ (amplitude)” value [2] was 27.49 % ID/g, the k1 [2] was 0.454 and the k2 [2] was 0.04. The t1/2α [2] was 1.52 h and the t1/2β [2] was 17.3 h.

Source: US20160083450A1, “HUMAN PROTEIN SCAFFOLD WITH CONTROLLED SERUM PHARMACOKINETICS” (THE REGENTS OF THE UNIVERSITY OF CALIFORNIA, priority 2009, published 2016)
